The values that follow are results of earlier work, collected in US10655161B2 (dated 2020).

For the data set the following is noted: human, in vivo; cited from earlier work.

Consider `Cc1nc(Nc2ncc(C(=O)Nc3c(C)cccc3Cl)s2)cc(N2CCN(CCO)CC2)n1` [Dasatinib, dasatinib], for which the “Achievable plasma trough concentration” value is on record as “about 100 nM”.
